Series [1] deals with T1, Cannabinoid receptor 2 (Homo sapiens, UniProt P34972). Description: Displacement of [3H]CP55940 from human CB2 receptor expressed in HEK293 cell membranes. In outline: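 Competition binding against [3H]CP55940 in membranes from HEK cells overexpressing human CB1 or CB2. Ki values are derived from displacement, and the same membrane format is used for both receptors. Values are averages of three to six independent measurements.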
(In general: Displacement assays read how much labelled ligand stays bound in the presence of the test substance.)

Sequences of proteins named here, by UniProt entry; tags and fusion partners are left off. A change or cut given only in a name is not applied to a line headed by its entry.
UniProt P34972, whole entry: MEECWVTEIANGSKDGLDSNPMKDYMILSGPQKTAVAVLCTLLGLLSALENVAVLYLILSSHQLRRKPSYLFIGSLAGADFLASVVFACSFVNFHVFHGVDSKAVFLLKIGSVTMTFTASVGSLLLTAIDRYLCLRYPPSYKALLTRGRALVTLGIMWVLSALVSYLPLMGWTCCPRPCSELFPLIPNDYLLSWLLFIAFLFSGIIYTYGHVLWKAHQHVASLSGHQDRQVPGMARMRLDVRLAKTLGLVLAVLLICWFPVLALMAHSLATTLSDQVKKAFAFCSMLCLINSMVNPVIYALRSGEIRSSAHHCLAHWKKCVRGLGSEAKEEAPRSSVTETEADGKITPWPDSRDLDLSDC
UniProt P21554, whole entry: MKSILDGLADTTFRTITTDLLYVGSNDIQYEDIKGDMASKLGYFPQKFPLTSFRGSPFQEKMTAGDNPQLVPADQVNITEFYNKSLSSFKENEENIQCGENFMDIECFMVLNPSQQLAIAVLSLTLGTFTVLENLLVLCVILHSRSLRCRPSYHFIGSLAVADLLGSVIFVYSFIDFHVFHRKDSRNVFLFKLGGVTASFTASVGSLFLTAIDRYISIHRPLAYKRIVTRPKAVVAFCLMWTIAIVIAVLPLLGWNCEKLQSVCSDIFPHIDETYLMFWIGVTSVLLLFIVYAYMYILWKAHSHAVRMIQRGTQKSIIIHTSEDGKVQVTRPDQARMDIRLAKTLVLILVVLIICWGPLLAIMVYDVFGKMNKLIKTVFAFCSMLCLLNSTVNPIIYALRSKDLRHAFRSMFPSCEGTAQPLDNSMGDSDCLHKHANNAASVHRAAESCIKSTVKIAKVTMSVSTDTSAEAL
UniProt Q12809: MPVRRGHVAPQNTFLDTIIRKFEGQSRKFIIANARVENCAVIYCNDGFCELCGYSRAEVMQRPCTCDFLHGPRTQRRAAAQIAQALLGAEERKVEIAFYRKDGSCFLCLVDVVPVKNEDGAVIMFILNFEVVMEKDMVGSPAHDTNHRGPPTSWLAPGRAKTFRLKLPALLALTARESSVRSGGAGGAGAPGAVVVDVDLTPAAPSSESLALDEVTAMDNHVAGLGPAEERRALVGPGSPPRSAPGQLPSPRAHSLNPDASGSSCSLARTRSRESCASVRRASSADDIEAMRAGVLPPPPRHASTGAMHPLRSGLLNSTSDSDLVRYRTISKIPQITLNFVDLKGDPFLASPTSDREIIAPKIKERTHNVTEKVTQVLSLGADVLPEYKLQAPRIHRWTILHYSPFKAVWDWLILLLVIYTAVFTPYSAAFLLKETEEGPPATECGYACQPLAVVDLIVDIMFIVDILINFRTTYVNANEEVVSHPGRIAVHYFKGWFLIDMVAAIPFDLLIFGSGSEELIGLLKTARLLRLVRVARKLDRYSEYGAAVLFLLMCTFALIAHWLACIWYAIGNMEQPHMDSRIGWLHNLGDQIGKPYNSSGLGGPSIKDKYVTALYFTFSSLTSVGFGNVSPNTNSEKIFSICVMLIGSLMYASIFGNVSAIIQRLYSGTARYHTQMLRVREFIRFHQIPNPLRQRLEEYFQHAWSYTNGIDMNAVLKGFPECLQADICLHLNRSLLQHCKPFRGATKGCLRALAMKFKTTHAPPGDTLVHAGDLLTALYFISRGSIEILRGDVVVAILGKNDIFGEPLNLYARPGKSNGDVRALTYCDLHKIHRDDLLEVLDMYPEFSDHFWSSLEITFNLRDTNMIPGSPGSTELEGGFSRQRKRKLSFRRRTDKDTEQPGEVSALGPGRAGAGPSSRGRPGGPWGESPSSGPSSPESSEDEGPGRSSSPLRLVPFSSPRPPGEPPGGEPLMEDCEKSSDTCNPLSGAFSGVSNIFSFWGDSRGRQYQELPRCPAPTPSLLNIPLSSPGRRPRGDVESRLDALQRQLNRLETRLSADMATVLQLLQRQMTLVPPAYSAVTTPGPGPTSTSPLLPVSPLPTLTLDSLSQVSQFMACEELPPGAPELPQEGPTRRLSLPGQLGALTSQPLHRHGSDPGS

In series [2] the target is T2, Cannabinoid receptor 1 (Homo sapiens, UniProt P21554). Description: Displacement of [3H]CP55940 from human CB1 receptor expressed in HEK293 cell membranes.
The target of series [3] is T2, Cannabinoid receptor 1. As to the kind of experiment: Inverse agonist activity at human CB1 receptor expressed in CHOK1 cells co-expressing Galphaq16 assessed as reduction in CP55940-induced intracellular calcium mobilization by calcein-4 AM dye based fluorescence assay. The series is classed as functional, cell-based.
A short description of series [4]: Half life in human liver microsomes at 1 uM in presence of NADPH by chromatographic method. Format: ADME, Microsome. For orientation: Liver microsomes are vesicles of endoplasmic reticulum, rich in cytochrome P450 enzymes.
Series [5] is described as follows: Clearance in human liver microsomes at 1 uM incubated for 120 mins in presence of NADPH by chromatographic method. The conditions noted are these: 2 h. Format: ADME, Microsome.
The target of series [6] is T3, Voltage-gated inwardly rectifying potassium channel KCNH2 (Homo sapiens, UniProt Q12809).
Series [7] has as its target T3, Voltage-gated inwardly rectifying potassium channel KCNH2. As to the kind of experiment: Displacement of [3H]dofetilide from recombinant human ERG after 60 mins by scintillation counting analysis.
For series [8], the target named is T1, Cannabinoid receptor 2. Description: Displacement of [3H]WIN55212-2 from recombinant human CB2 receptor after 120 mins by scintillation counting analysis.
The species entered for a further series is Homo sapiens. Description: Selectivity ratio of Ki for displacement of [3H]CP55940 from human CB2 receptor expressed in HEK293 cell membranes to Ki for displacement of [3H]CP55940 from human CB1 receptor expressed in HEK293 cell membranes.

In general, Ki refers to the equilibrium dissociation constant of an inhibitor or competing ligand from its target. A high value points to a looser hold on the target. Turning to `O=C(Nc1ccc(C(F)(F)F)nc1)NC1CCN(c2ncnc3c2nc(-c2ccccc2Cl)n3-c2ccc(Cl)cc2)CC1`, the Ki was over 10000 nM on Cannabinoid receptor 2 [1] and 51 nM on Cannabinoid receptor 1 [2]. Also, the Ke on Cannabinoid receptor 1 [3] was 37 nM.

As a reminder, the half-life is how long it takes for the measured level to halve. Regarding `O=C(Nc1ccccc1)NC1CCN(c2ncnc3c2nc(-c2ccccc2Cl)n3-c2ccc(Cl)cc2)CC1`, in series [4], the half-life at 1 µM amounted to 1.92 h. Further, the CLH in series [5] stood at 11 µL/min/mg. On Cannabinoid receptor 2 [1], this molecule came in with a Ki of over 10000 nM. Moreover, the Ke on Cannabinoid receptor 1 [3] is 30 nM.

As for `CC1(NC(=O)Nc2ccccc2F)CCN(c2ncnc3c2nc(-c2ccccc2Cl)n3-c2ccc(Cl)cc2)CC1`, the half-life at 1 µM in series [4] is 1.28 h. In addition, the CLH in series [5] is 16 µL/min/mg.

The molecule `O=C(Nc1ccc(F)cc1)NC1CCN(c2ncnc3c2nc(-c2ccccc2Cl)n3-c2ccc(Cl)cc2)CC1` gave a Ki at Cannabinoid receptor 2 [1] of 6500 nM.

`O=C(NC1CCN(c2ncnc3c2nc(-c2ccccc2Cl)n3-c2ccc(Cl)cc2)CC1)NC1CCC(F)(F)CC1`: the Ke on Cannabinoid receptor 1 [3] was 79 nM.

In turn, `COCCN(C)C(=O)NC1CCN(c2ncnc3c2nc(-c2ccccc2Cl)n3-c2ccc(Cl)cc2)CC1` displayed a Ki on Cannabinoid receptor 1 [2] of 0.26 nM.

Molecule `CCCN(C)C(=O)NC1CCN(c2ncnc3c2nc(-c2ccccc2Cl)n3-c2ccc(Cl)cc2)CC1` returned a Ki on Cannabinoid receptor 1 [2] of 0.9 nM.

On to `O=C(Nc1ccc(F)cc1F)NC1CCN(c2ncnc3c2nc(-c2ccccc2Cl)n3-c2ccc(Cl)cc2)CC1`, for which the Ki (on Cannabinoid receptor 2 [1]; in series [6]) was over 10000 nM in each case.

For the molecule `O=C(NC1CCN(c2ncnc3c2nc(-c2ccccc2Cl)n3-c2ccc(Cl)cc2)CC1)NS(=O)(=O)c1ccccc1F`, the affinity on Cannabinoid receptor 1 [2] corresponds to a Ki of 380 nM.

Usually EC50 stands for the concentration at which the effect is half-maximal. As a reminder, the IC50 is the concentration that gives 50% inhibition. For `O=C(Nc1ccc(OC(F)F)nc1)NC1CCN(c2ncnc3c2nc(-c2ccccc2Cl)n3-c2ccc(Cl)cc2)CC1`, the EC50 (in series [7]; on Cannabinoid receptor 2 [8]) was over 10000 nM in each case. Moreover, the 50% inhibitory concentration (IC50) (in [7]; on Cannabinoid receptor 2 [8]) was over 10000 nM throughout. Further, the half-life at 1 µM in series [4] was found to be 7.05 h. Besides, the CLH in series [5] came out at 3 µL/min/mg. For the same molecule, the Ki on Cannabinoid receptor 2 [1] was over 10000 nM; at Cannabinoid receptor 1 [2], 22 nM; in [6], over 10000 nM.

`O=C(NCc1ccccc1F)NC1CCN(c2ncnc3c2nc(-c2ccccc2Cl)n3-c2ccc(Cl)cc2)CC1`: the Ki at Cannabinoid receptor 1 [2] came to 2.4 nM.

For `CC1(NC(=O)NS(=O)(=O)c2ccccc2F)CCN(c2ncnc3c2nc(-c2ccccc2Cl)n3-c2ccc(Cl)cc2)CC1`, in series [4], the half-life at 1 µM was 1.4 h. In addition, in [5], the CLH worked out at 15 µL/min/mg. Further, the Ke at Cannabinoid receptor 1 [3] is 7 nM.

Regarding `O=C(NCC1CCCC1)NC1CCN(c2ncnc3c2nc(-c2ccccc2Cl)n3-c2ccc(Cl)cc2)CC1`, the Ki at Cannabinoid receptor 1 [2] amounted to 19 nM.

On Cannabinoid receptor 2 [1], `O=C(Nc1ccccc1F)NC1CCN(c2ncnc3c2nc(-c2ccccc2Cl)n3-c2ccc(Cl)cc2)CC1` returned a Ki of over 10000 nM.

Regarding `O=C(NCc1ccc(F)cc1)NC1CCN(c2ncnc3c2nc(-c2ccccc2Cl)n3-c2ccc(Cl)cc2)CC1`, the Ki at Cannabinoid receptor 2 [1] is over 10000 nM.

For `O=C(NC1CCCC1)NC1CCN(c2ncnc3c2nc(-c2ccccc2Cl)n3-c2ccc(Cl)cc2)CC1`, the Ki on Cannabinoid receptor 1 [2] was 3 nM.

In the case of `CC1(NC(=O)Nc2ccc(OC(F)F)nc2)CCN(c2ncnc3c2nc(-c2ccccc2Cl)n3-c2ccc(Cl)cc2)CC1`, the half-life at 1 µM in series [4] was 0.85 h. For the same molecule, in series [5], the CLH worked out at 24 µL/min/mg.

Turning to `CC1(NC(=O)NC2CCC(F)(F)CC2)CCN(c2ncnc3c2nc(-c2ccccc2Cl)n3-c2ccc(Cl)cc2)CC1`, the half-life at 1 µM in series [4] came to 4.65 h. In addition, the CLH in series [5] was found to be 5 µL/min/mg. The Ratio Ki in the series filed under Homo sapiens was over 588.

With `CC(C)CN(C)C(=O)NC1CCN(c2ncnc3c2nc(-c2ccccc2Cl)n3-c2ccc(Cl)cc2)CC1`, the affinity on Cannabinoid receptor 1 [2], expressed as Ki, was 0.8 nM.

The record behind these values is ChEMBL document CHEMBL4364254 (J Med Chem, 2019).
